Where “and” joins values, the source holds several entries; their conditions need not be identical. Equal values may be shown once. This is a selection; strong and weak results do not stand in their true shares. Results filed as inconclusive are left out. The source holds several records for some structures; these can differ, active in one and inactive in another. Calls of active or inactive are those of the source. Calls follow the shape of the dose curve; as a rule, active = well fitted curve in the direction sought with a large enough effect in the repeat runs; inconclusive = weak or mixed curves; inactive = no such curve, though single readings can be large; an effect the other way counts as inactive or inconclusive.
Assays:
[1] = Human pregnane X receptor (PXR) small molecule agonists, qHTS cell viability counter screen (AID 1346977); conditions: PXR-Luc HepG2 viability, CellTiter-Fluor, 24 h; at 92.4 µM (top of the series) unless noted; also: nearly all actives have a fitted effect of over 50% in size
Method in brief: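 Fluorescence read-out (CellTiter-Fluor) of viability in PXR-Luc HepG2 cells, multiplexed with the luciferase agonist read. Compounds in DMSO added after 5hr plating; 24hr total exposure at 37C, 5% CO2.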

Chains of the proteins cited; added tags and fusions are not shown.
UniProt O75469, whole entry: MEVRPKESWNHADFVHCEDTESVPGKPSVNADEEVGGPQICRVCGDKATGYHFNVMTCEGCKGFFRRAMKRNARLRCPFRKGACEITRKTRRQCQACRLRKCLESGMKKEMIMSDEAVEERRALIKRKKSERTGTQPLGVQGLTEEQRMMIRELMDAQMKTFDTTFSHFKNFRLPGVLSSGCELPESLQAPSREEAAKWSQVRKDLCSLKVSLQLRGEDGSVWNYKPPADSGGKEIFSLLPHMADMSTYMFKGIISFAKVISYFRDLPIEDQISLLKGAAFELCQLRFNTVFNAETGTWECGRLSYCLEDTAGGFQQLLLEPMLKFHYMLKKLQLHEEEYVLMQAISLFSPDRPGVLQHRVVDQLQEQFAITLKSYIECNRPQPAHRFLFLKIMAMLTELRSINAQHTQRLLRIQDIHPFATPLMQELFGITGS
UniProt P10635, whole entry: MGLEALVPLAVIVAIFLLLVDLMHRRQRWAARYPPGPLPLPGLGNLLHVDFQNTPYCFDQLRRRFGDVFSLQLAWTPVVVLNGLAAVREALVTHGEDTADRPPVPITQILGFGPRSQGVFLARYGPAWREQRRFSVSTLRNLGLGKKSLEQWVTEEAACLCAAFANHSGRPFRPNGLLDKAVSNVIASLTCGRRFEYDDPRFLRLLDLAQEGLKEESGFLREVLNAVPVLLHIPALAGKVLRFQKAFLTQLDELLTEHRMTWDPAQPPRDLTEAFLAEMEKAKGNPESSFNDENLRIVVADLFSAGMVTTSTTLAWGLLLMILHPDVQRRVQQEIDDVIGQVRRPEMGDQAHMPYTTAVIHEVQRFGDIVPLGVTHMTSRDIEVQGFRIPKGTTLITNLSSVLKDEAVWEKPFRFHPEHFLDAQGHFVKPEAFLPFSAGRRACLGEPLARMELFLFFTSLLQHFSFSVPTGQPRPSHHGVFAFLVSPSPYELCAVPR
UniProt P33261, whole entry: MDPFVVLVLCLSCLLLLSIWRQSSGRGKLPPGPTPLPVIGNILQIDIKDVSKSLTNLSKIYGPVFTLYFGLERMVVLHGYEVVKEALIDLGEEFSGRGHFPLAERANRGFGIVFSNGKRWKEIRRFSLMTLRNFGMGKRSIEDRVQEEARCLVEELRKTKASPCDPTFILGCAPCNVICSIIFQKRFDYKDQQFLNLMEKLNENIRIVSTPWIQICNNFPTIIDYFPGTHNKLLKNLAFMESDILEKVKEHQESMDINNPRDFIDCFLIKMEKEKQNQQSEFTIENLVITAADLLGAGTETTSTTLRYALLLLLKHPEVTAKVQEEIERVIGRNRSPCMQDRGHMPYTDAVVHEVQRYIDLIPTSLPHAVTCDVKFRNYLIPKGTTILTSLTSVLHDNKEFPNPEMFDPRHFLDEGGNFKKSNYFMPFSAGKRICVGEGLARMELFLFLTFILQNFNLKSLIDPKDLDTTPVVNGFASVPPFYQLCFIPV
UniProt P11712, whole entry: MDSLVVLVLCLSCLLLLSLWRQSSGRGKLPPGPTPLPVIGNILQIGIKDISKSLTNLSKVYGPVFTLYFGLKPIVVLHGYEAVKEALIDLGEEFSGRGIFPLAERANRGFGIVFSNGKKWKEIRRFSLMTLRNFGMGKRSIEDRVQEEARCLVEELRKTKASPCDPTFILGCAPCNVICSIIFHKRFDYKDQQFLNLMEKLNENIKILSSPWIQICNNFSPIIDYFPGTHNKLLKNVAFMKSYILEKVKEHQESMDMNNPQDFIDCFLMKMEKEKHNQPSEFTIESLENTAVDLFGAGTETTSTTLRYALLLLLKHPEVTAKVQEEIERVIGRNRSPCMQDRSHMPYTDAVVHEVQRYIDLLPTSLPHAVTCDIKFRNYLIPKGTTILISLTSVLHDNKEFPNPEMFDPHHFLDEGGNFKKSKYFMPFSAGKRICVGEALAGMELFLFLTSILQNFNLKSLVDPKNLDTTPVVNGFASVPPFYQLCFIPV
UniProt P05177, whole entry: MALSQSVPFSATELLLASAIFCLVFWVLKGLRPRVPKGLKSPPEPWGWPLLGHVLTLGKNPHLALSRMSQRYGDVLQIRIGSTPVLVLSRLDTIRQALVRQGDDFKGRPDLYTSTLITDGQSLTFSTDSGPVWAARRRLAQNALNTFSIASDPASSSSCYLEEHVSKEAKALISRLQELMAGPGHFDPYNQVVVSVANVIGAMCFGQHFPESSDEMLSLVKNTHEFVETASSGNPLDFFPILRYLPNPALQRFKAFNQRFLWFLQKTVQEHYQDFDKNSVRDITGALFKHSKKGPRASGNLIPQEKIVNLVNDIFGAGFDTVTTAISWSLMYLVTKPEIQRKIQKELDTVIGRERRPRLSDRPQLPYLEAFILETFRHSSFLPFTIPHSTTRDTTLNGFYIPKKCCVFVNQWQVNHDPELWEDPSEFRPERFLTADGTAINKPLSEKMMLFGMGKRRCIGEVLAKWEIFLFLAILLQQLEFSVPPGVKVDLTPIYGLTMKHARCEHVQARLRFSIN
UniProt Q12809, whole entry: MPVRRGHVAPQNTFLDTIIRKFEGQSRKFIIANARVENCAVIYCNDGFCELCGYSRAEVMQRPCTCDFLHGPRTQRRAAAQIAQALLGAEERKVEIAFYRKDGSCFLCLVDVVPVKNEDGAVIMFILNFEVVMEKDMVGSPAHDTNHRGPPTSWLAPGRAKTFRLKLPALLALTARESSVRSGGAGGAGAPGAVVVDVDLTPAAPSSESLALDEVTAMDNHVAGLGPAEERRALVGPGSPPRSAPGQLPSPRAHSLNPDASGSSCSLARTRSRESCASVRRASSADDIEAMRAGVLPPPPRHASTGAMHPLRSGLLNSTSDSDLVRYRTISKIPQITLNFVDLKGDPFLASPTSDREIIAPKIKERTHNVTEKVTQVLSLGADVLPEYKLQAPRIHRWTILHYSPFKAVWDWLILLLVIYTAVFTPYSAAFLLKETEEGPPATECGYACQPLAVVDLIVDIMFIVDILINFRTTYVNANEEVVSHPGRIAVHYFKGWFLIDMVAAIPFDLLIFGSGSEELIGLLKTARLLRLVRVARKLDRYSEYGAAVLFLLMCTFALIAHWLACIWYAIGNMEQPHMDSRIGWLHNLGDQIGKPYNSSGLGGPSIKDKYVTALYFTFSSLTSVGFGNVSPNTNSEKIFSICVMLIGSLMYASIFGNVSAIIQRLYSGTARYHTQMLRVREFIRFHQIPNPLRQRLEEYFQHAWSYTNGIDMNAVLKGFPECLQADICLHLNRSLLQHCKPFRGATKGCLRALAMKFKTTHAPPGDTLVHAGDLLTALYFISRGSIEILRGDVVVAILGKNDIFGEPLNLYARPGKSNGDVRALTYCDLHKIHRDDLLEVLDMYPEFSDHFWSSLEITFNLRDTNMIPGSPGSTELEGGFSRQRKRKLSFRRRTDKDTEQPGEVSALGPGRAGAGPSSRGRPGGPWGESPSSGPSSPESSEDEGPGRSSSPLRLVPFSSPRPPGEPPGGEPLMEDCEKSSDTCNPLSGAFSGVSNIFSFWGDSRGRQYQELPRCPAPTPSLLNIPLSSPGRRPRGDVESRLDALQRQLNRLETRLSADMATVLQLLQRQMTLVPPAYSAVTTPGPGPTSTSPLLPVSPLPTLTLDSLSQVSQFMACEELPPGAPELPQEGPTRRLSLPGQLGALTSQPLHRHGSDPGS
UniProt P08684, whole entry: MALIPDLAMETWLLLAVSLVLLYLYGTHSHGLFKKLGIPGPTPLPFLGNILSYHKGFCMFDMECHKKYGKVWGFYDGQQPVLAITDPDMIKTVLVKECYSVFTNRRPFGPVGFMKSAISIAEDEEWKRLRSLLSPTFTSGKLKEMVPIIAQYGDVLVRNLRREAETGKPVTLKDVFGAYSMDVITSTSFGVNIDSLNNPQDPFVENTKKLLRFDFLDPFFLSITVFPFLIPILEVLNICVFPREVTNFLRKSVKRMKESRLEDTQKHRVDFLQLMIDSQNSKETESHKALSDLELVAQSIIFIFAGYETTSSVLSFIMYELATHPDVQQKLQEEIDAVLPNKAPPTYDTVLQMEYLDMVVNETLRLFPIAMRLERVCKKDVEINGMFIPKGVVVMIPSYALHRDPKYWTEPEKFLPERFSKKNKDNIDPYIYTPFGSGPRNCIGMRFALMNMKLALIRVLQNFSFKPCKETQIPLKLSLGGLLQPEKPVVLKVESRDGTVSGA

[2] = Caspase-3/7 induction in HepG2 cells by small molecules, qHTS assay (AID 1346978); conditions: HepG2 caspase-3/7 activation, Caspase-Glo luminescence, 17 h; at 92.4 µM (top of the series) unless noted; also: nearly all actives have a fitted effect of over 15% in size
Method in brief: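 Wild-type HepG2 cells (2,000/well) were settled 5 h at 37 C, 5% CO2, then exposed to compounds in DMSO for 17 h. Caspase-3/7 activity was read by luminescence 30 min after adding Caspase-Glo 3/7 reagent at room temperature.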

[3] = Caspase-3/7 induction in CHO-K1 cells by small molecules, qHTS assay (AID 1346980); conditions: CHO-K1 caspase-3/7 induction, Caspase-Glo luminescence, 17 h; at 92.4 µM (top of the series) unless noted; also: nearly all actives have a fitted effect of over 15% in size
Method in brief: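 Wild-type cells were seeded at 1,500 per well and settled 5 hr at 37 C, 5% CO2, then exposed to DMSO-dissolved compounds for 17 hr. Caspase-Glo 3/7 reagent was added, and luminescence was read after 30min at room temperature.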

[4] = Caspase-3/7 induction in HepG2 cells by small molecules, qHTS cell viability counter screen (AID 1346981); conditions: CellTiter-Fluor fluorescence, 17 h; at 92.4 µM (top of the series) unless noted; also: nearly all actives have a fitted effect of over 30% in size
Method in brief: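 CellTiter-Fluor fluorescence measured viability in the same wells used for Caspase-Glo 3/7. HepG2 (wild type) at 2,000 cells/well were pre-incubated 5 hr, dosed, and given reagent at 16 hr, with 1 hr further at 37C.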

[5] = target: Nuclear receptor subfamily 1 group I member 2 (Homo sapiens) (UniProt O75469); assay: Human pregnane X receptor (PXR) small molecule agonists, qHTS assay (AID 1346982); conditions: PXR-Luc HepG2, CYP3A4 luciferase reporter, 24 h; at 92.4 µM (top of the series) unless noted; also: nearly all actives have a fitted effect of over 35% in size
Method in brief: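 Agonist mode: luminescence from ONE-Glo after 24 h compound exposure at 37C in HepG2 cells carrying hPXR-responsive CYP3A4 luciferase, plated in charcoal-stripped serum medium 5 h beforehand.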

[6] = target: Cytochrome P450 2D6 (Homo sapiens) (UniProt P10635); assay: Cytochrome P450 Family 2 Subfamily D Member 6 (CYP2D6) small molecule antagonists: luciferase reporter qHTS assay (AID 1671196); also: nearly all actives have a fitted effect of over 50% in size; also: potency is read from the fitted curve at half-maximal effect
Method in brief: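 CYP2D6 activity was followed as luminescence from its luciferin product after a 1 h NADPH-driven reaction at room temperature. Enzyme-substrate mix and compound were pre-incubated for 10 min, and the signal was read 20 min after adding detection reagent.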

[7] = target: Cytochrome P450 2C19 (Homo sapiens) (UniProt P33261); assay: Cytochrome P450 Family 2 Subfamily C Member 19 (CYP2C19) small molecule antagonists: luciferase reporter qHTS assay (AID 1671197); also: nearly all actives have a fitted effect of over 65% in size; also: potency is read from the fitted curve at half-maximal effect
Method in brief: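 CYP2C19 P450-Glo, 1536-well qHTS. Cpd + enzyme/proluciferin substrate 10 min RT; + NADPH regen, 37C 1 h; stop with luciferin detection reagent, 20 min RT, luminescence (RLU). Pos ctrl ketoconazole.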

[8] = target: Cytochrome P450 2C9 (Homo sapiens) (UniProt P11712); assay: Cytochrome P450 Family 2 Subfamily C Member 9 (CYP2C9) small molecule antagonists: luciferase reporter qHTS assay (AID 1671198); conditions: P450-Glo CYP2C9 enzyme assay, luciferin luminescence; at 115 µM (top of the series) unless noted; also: nearly all actives have a fitted effect of over 50% in size
Method in brief: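 CYP2C9 activity was measured with a P450-Glo proluciferin substrate. Enzyme–substrate mix was held with compound for 10 min at room temperature, then NADPH regeneration solution was added for 1 h at 37C. Luciferin product was read as luminescence.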

[9] = target: Cytochrome P450 1A2 (Homo sapiens) (UniProt P05177); assay: Cytochrome P450 Family 1 Subfamily A Member 2 (CYP1A2) small molecule antagonists: luciferase reporter qHTS assay (AID 1671199); conditions: P450-Glo CYP1A2 enzyme, luciferin luminescence, 1 h; at 115 µM (top of the series) unless noted; also: nearly all actives have a fitted effect of over 50% in size
[10] = target: Voltage-gated inwardly rectifying potassium channel KCNH2 (Homo sapiens) (UniProt Q12809); assay: Human Ether-a-go-go-Related Gene (hERG) channel small molecule antagonists: fluorescence cell-based qHTS assay (AID 1671200); conditions: hERG-U2OS cells, FluxOR thallium flux fluorescence; at 76.8 µM (top of the series) unless noted
Method in brief: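 Read-out: thallium influx as a surrogate for potassium, tracked as fluorescence (480 nm ex/540 nm em) every second for 2 min after Stimulus Buffer addition in dye-loaded hERG-U2OS cells.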

[11] = target: Cytochrome P450 3A4 (Homo sapiens) (UniProt P08684); assay: Cytochrome P450 Family 3 Subfamily A Member 4 (CYP3A4) small molecule antagonists: luciferase reporter qHTS assay (AID 1671201); conditions: P450-Glo CYP3A4 enzyme, luciferin luminescence, 1 h; at 115 µM (top of the series) unless noted; also: nearly all actives have a fitted effect of over 50% in size
Method in brief: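 Luminescent readout (RLU) proportional to CYP3A4 activity, from luciferin generated off a proluciferin substrate. Enzyme–substrate mix plus compound 10 min at room temp, NADPH regeneration 1 h, detection reagent 20 min.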

[12] = Caspase-3/7 induction in CHO-K1 cells by small molecules, qHTS cell viability counter screen (AID 1346979); conditions: CellTiter-Fluor fluorescence, 17 h; at 92.4 µM (top of the series) unless noted; also: nearly all actives have a fitted effect of over 35% in size
Method in brief: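 CHO-K1 wt, 1,500 cells/well; 5hr pre-incubation 37C/5% CO2; compound pin transfer (DMSO); 16hr exposure; CellTiter-Fluor added, 1hr, fluorescence read.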
% is scaled to controls: 0 for no effect and ±100 for the full control effect.

Structure (SMILES)	activity change, negative = cytotoxicity [1]	caspase activation [2]	caspase-3/7 activation [3]	activity change, negative = cytotoxicity [4]	activation [5]	Potency [6]	Potency [7]	activity change, negative = inhibition [8]	activity change, negative = inhibition [9]	activity change, negative = inhibition [10]	activity change, negative = inhibition [11]	activity change, negative = cytotoxicity [12]
CC(C)OP(OC(C)C)OC(C)C	inactive: -4.68%	inactive: 0.234%	inactive: 2.8%	inactive: -2.3%	inactive: 9.31%	inactive	inactive	inactive: 9.07%	inactive: -6.05%	inactive: 3.6%	inactive: 25.6%	
CCOC(=O)N1CCC(=O)CC1	inactive: 8.78% [at 42.5 µM]	inactive: 0.255% [at 42.5 µM]	inactive: 0.155% [at 42.5 µM]	inactive: 5.37% [at 42.5 µM]	inactive: -7.76% [at 42.5 µM]	inactive	inactive	inactive: -2.12% [at 53 µM]	inactive: 10.1% [at 53 µM]	inactive: -0.226% [at 35.3 µM]	inactive: 6.47% [at 52.9 µM]	inactive: 4.24% [at 42.5 µM]
CCOP(=S)(Cl)OCC	inactive: 16.8%	inactive: -0.869%	inactive: -0.0532%	inactive: -2.73%	inactive: 29.8%					inactive: 6.03%		inactive: -14%
O=[N+]([O-])c1ccccc1[N+](=O)[O-]		inactive: -0.92% and inactive: 0.189%	inactive: 0.595% and inactive: 0.0691%	inactive: -9.66% and inactive: -5.94%	inactive: 14.3% and inactive: -13.2%					inactive: 15.5% and inactive: 3.42%		
ClCCOP(OCCCl)OCCCl	inactive: 3.23% and inactive: 0.456%	inactive: 0.457% and inactive: -0.0328%	inactive: 1.32% and inactive: -1.29%	inactive: -0.102% and inactive: -0.546%	inactive: 5.82% and inactive: 12.3%	inactive	active: 71.5 µM and inactive	inactive: -19.9%	inactive: -9.36%	inactive: -1.2% and inactive: -8.85%	inactive: 2.45% and inactive: 2.05%	inactive: 0.0358% and inactive: -0.853%
ClCCNCCCl	inactive: -1.34%	inactive: -0.715%	inactive: 0.489%	inactive: 0.52%	inactive: 0.116%	inactive	inactive	inactive: -7.56%	inactive: -2.22%	inactive: -1.82%	inactive: -0.233%	inactive: 0.575%
CCC(=O)N(c1ccccc1)C1CCNCC1	inactive: 6.04% [at 42.5 µM]	inactive: 0.606% [at 42.5 µM]	inactive: -1.92% [at 42.5 µM]	inactive: 3.05% [at 42.5 µM]	inactive: -7.5% [at 42.5 µM]	active: 4.9 µM	inactive	inactive: -18.3% [at 53 µM]	inactive: -18.7% [at 53 µM]	inactive: 1.55% [at 35.3 µM]	inactive: -13.4% [at 52.9 µM]	inactive: -3.53% [at 42.5 µM]
CCOP(=O)(Cl)Cl	inactive: 1.66% and inactive: 3.53%	inactive: 0.513% and inactive: 0.295%	inactive: 0.134% and inactive: -0.934%	inactive: -1.93% and inactive: -1.99%	inactive: -0.356% and inactive: -0.791%		inactive	inactive: -28.9%	inactive: -19%	inactive: 11.2% and inactive: 1.17%	inactive: -3.37% and inactive: 0.926%	inactive: 9.96% and inactive: 8.65%
